Results as given in patent publication US12421210B2, “Fused bicyclic heterocycles as therapeutic agents” (NEW YORK UNIVERSITY, priority 2018, dated 2025).

Protein sequences, listed by entry. Tags and fused reporters are not part of them.
UniProt P43490, whole entry: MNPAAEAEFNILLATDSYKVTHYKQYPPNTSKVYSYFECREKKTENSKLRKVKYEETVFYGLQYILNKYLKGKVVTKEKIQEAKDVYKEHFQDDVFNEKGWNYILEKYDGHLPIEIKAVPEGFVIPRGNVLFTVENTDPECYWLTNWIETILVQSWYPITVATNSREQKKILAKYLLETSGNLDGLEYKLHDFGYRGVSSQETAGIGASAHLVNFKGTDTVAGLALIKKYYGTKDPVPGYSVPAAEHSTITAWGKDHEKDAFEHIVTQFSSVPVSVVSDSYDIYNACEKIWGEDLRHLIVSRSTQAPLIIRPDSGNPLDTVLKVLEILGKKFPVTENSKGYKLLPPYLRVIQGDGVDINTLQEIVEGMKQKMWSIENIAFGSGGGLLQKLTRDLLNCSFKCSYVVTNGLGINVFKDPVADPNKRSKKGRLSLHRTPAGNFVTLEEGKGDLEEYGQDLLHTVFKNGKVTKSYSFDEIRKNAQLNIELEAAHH

Molecular target: human NAMPT enzyme (His-hNAMPT) (Homo sapiens (Human), UniProt P43490)
Assay: NAMPT enzymatic inhibition assay (fluorescence, NADH product)
Settings: read-out: NAMPT IC50 (μM) [HDB]

IC50: 0.01 to 0.49 µM
SMILES: O=C(/C=C/c1cccnc1)NCCC1C2CN(c3ccccc3)C(=O)C12 (single isomer, unassigned)
